Measured values published in patent US5807671A (priority 1995, dated 1998).

The chains behind the UniProt entries cited, without tags or fusion partners. Residues count along the entry.
UniProt P22303, 32-614: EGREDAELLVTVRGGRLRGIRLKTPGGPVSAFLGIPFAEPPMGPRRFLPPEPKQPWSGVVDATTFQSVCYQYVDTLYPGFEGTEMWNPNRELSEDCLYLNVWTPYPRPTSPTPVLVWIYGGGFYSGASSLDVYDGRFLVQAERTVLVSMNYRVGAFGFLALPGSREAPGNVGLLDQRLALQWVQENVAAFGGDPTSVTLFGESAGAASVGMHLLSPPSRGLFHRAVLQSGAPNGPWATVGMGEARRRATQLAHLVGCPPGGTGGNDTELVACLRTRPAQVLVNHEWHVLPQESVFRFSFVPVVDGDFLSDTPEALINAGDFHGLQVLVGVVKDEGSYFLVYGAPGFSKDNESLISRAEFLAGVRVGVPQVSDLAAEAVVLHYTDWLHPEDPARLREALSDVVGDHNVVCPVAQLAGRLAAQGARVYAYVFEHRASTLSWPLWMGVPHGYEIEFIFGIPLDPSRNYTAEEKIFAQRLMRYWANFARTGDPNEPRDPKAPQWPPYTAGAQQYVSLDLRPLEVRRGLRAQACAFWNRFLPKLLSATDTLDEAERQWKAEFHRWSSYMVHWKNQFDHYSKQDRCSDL

How the values were obtained:
[1] = molecular target: diisopropylphosphoryl-AChE (E5) (Homo sapiens, UniProt P22303); test: biochemical
[2] = molecular target: diisopropylphosphoryl-AChE (E6) (Homo sapiens, UniProt P22303); test: biochemical

**Q.** For `C[n+]1ccccc1/C=N/O` [PAM, Pyridine-2-aldoxime methiodide], which Kd [1] is on record?
**A.** The Kd was 190 ± 70 µM.

**Q.** What about the Kd [2] of the same compound?
**A.** Its Kd is 270 ± 40 µM.
